Measured values taken from patent publication US20020086390A1.

Target: inactive PAK I holoenzyme (p60) purified from rabbit reticulocytes (rabbit) (UniProt Q29502)
Experiment: cell-based or functional assay

stimulation relative to Cdc42Hs(GTPγS): 10 fold lower
Substance: GST-Rac1 preloaded with GTPγS (from UniProt P63000 1-192)
